## Antibody variant affinities, Ab-14 light chain, assay B

Data: MIT Lincoln Laboratory AlphaSeq set, Li et al. 2023, doi:10.1038/s41467-023-39022-2, as distributed in FLAb.

Binding partner: SARS-CoV-2 spike HR2 peptide, sequence PDVDLGDISGINAS.

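Phage display of a naive human antibody library on the peptide gave the parent. Designed CDR sequences, proposed from the first random library and measured here. Several design methods are mixed in this list. The assay is AlphaSeq: two haploid yeast populations carry antibody and antigen on their surface. Pairs that bind mate more often; barcode pairs of the diploids are counted by sequencing. Read counts were normalised to the haploid input and turned into Kd by a linear fit to BCL2-family pairs of known affinity, for each replicate. The assay was run in six technical replicates.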

Parent scFv Ab-14: VH joined to VL by the linker GGGGSGGGGSGGGGS. Changes lie in the light chain CDRs alone.
VH: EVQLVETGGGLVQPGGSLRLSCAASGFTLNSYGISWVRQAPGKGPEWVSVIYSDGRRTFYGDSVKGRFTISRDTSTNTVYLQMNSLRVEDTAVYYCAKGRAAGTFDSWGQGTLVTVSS
VL: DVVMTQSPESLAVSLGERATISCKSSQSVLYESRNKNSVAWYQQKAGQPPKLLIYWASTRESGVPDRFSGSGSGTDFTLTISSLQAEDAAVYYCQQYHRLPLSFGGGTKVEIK

Variants are written as CDR1, CDR2 and CDR3 of the light chain (limits as in the source). Parent: KSSQSVLYESRNKNSVA, WASTRES, QQYHRLPLS.
This list holds designs with more than six substitutions.
Values are log10 of the apparent Kd in nM; lower means stronger binding.
A pair that was not seen in that replicate is written "nd"; this usually means weak binding, but a binder can also be missed.

* KVHQSQLYESRQINSVA / NASQRCD / QQYHRLPLS: 1.24, 1.05, 0.65, 0.99, 0.40, 0.85
* IVSQLMIWGMHAKNSIA / EAETRIN / QQYERLPLF: 2.21, 3.23, nd, nd, 3.88, 2.51
* HLSQSGLYGMRNKNSVA / QASQRLQ / QQYHRLPLS: 0.49, 0.39, 0.32, 0.48, 0.78, 0.57
* KISASVNYEMVNGQSVA / QMSTREK / QQYDRLPLS: 1.04, 0.63, 0.80, 1.07, 0.74, 1.02
* QIGFLLNFESKIVNNVA / QMETRVE / QQYDRLPLS: 1.33, 1.24, 1.10, 1.27, 1.05, 1.24
* KLEGSVEYESRWKNSVA / HASVREV / QQYHRLPLS: 0.86, 0.81, 1.03, 1.26, 1.41, 1.17
* KLSQVTNSEHKVSNSIA / EMVTREK / QQYDRLPLS: nd, nd, 2.19, nd, nd, nd
* MLGDTVMQGLYSRNSVA / QESTRAE / QQYHHLPLS: 1.87, 0.19, 0.50, 0.16, 0.66, 0.32
* KLYDMSAVTMSNIRNVA / DNTTREQ / QQYHRLPLS: nd, nd, nd, 1.33, 1.75, 1.92
* KLSQDDWYESRNCNSVA / QASTREQ / QQYHRLPLS: 0.37, 0.43, 0.44, 0.33, 0.31, 0.79
* HVSEMVFAQSKMRNSVA / ENSTRES / QQYDRLPLS: 1.78, 1.84, 1.91, 2.23, 2.09, 2.08
* HISPSFMVESRLKNSVA / QTETRVE / QQYDRLPLS: 0.31, 0.31, 0.36, 0.24, 0.18, 0.60
* KLSQFYRMESRDKNSVA / DNSTRES / QDYDRLPLS: 1.65, 1.20, 1.13, 1.26, 1.92, 1.77
* KLQYLVLYGSRNKNSVA / GASTRLQ / QQYHRLPLS: 1.39, 1.76, 1.85, 1.77, 2.44, 2.07
* TLSDWEWYGEEQMNRIA / DRSHLEW / QQYGRLPLS: 0.97, 0.04, 0.41, 0.45, 0.52, 0.50
* KFGQMVLTGAYVSNSVA / QMSTRVN / QQYHRLPLS: 0.69, 0.37, 0.42, 0.38, 0.59, 0.66
* IIDQLMYWGNKHVNSIA / QASQRLN / QQYHHLPLI: nd, nd, nd, nd, nd, nd
* MITQMEAPAGQQESSIA / HGGTKSE / QQYNRLPLA: 2.08, 1.27, 0.83, 0.53, 1.85, 1.82
* KLRLSQEYESRQKNSVA / NASTRCV / QQYHRLPLS: 0.43, 0.29, 0.37, 0.32, 0.50, 0.43
* MLSQMWAIGMKAKNSVA / QANMRFN / QQYDRLPLI: nd, nd, nd, 1.38, nd, nd
* KLQQSCLYESRNPNSVA / NASYRSS / QQYHRLPLS: 0.33, 0.17, 0.13, -0.02, -0.03, 0.13
* KLGMTLNQLYEKKNNVA / DLVEREN / QQYHRLPLS: 0.36, 0.30, 0.33, 0.24, 0.41, 0.53
* MLSLNLHDMDRNKNNVA / EMNKKTT / QDYHRLPLA: -0.02, -0.19, -0.23, -0.37, -0.21, 0.25
* SLELFSLEGDKPVNAVA / DEVVKLA / QQYFRLPLH: 1.21, 0.90, 1.13, 0.50, 0.91, 0.93
* KFPQSVGYETRNKNSVA / EASQREQ / QQYHRLPLS: 0.22, -0.02, 0.11, -0.19, -0.18, -0.08
* KYSQSHGGEERNKNSVA / HASLREE / QQYHRLPLS: 1.56, 1.13, nd, 1.19, 1.97, 1.71
* KISGMYQKESKNKNSVA / EMVNRVS / QQYDRLPLS: 0.34, 0.63, 0.15, 0.19, 0.19, 0.63
* MVNGIMDHLSKQTNNVA / ETVTREE / QQYERLPLS: 0.74, 0.63, 0.54, 0.68, 0.49, 1.08
* KIGQTLNQLMHQKNNVA / DLVTREA / QQYHRLPLS: 0.61, 0.56, 0.60, 0.43, 0.52, 0.39
* MISQLYNMGQFAINSVA / QASTRNE / QQYDRLPLM: 0.18, -0.16, 0.06, -0.49, -0.52, -0.02
* KLSQSEPYESRCANSVA / NASTRCE / QQYHRLPLS: 0.58, 1.32, 1.27, 1.07, 0.94, 0.80
* KLQQFYEYESRWKNSVA / HASTRRS / QQYHRLPLS: nd, 1.96, 1.38, 2.48, 2.04, 1.66
* KVSEFMRGLMQRKDSIA / DNVTRNS / QQYDRLPLS: nd, 2.04, nd, 3.01, nd, nd
* KLSQSELYESRCDNSVA / NASTRCE / QQYHRLPLS: 0.56, 0.74, 0.56, 0.58, 0.49, 0.62
* KVQQSELGESRHFNSVA / NASKRES / QQYHRLPLS: 0.40, 0.40, 0.12, 0.15, 0.26, 0.33
* TISGVMQQMSHSKSNVA / EVSMRLD / QQYFRLPLE: 0.93, 0.80, 0.68, 0.63, 1.26, 0.45
* HVSEMIFAQSKMRNSVA / ENSTREA / QQYDRLPLS: 2.33, 1.95, 3.15, 3.40, 2.56, nd
* MIAESVMYESRNKNSVA / DNSTRED / QCYDRLPLS: 1.04, 1.83, 1.12, 1.61, 0.81, 1.77
* KLQMRMLYESRMKNSVA / DASLRES / QQYHRLPLS: -0.02, -0.37, -0.19, -0.43, -0.19, -0.35
* NIRIEDYSEHNNANNVA / STDCRCD / QQYFMLPLM: 1.07, 1.07, 1.04, 0.85, 0.72, 0.95
* SLGLVTMLEEYARNSVA / NNSTREE / QQYDRLPLS: nd, nd, nd, nd, 2.25, 1.95
* KLVNFMNRGTHNTSNIA / DAQNRSD / QQYARLPLA: 1.03, 0.55, 0.70, 0.95, 0.94, 0.51

The closing 6 entries, repeated:

| CDR-L1 | CDR-L2 | CDR-L3 | log10 Kd (nM) by replicate |
|---|---|---|---|
| HVSEMIFAQSKMRNSVA | ENSTREA | QQYDRLPLS | 2.33, 1.95, 3.15, 3.40, 2.56, nd |
| MIAESVMYESRNKNSVA | DNSTRED | QCYDRLPLS | 1.04, 1.83, 1.12, 1.61, 0.81, 1.77 |
| KLQMRMLYESRMKNSVA | DASLRES | QQYHRLPLS | -0.02, -0.37, -0.19, -0.43, -0.19, -0.35 |
| NIRIEDYSEHNNANNVA | STDCRCD | QQYFMLPLM | 1.07, 1.07, 1.04, 0.85, 0.72, 0.95 |
| SLGLVTMLEEYARNSVA | NNSTREE | QQYDRLPLS | nd, nd, nd, nd, 2.25, 1.95 |
| KLVNFMNRGTHNTSNIA | DAQNRSD | QQYARLPLA | 1.03, 0.55, 0.70, 0.95, 0.94, 0.51 |

A sequence measured in both rounds can read differently, since the two assays cover different ranges.
As a blank, each scFv also met three strains without target: over all light chain designs, 4% of these pairings were detected, typically at 2.64 and seldom below 1.59.
The authors' rule: three or more of the six replicates give a measured affinity, fewer mean a poor binder.